# The list shows a part of the results, in another mix than the full data. Active and inactive are the calls of the source. Calls follow the shape of the dose curve; as a rule, active = well fitted inhibition curve with a large enough effect; inconclusive = small, poorly fitted or top-dose-only effect, or effect the other way; inactive = flat fitted curve, though single readings scatter.
# Amino acid sequences for entries named in this document (tags omitted).
# UniProt O15648, whole entry: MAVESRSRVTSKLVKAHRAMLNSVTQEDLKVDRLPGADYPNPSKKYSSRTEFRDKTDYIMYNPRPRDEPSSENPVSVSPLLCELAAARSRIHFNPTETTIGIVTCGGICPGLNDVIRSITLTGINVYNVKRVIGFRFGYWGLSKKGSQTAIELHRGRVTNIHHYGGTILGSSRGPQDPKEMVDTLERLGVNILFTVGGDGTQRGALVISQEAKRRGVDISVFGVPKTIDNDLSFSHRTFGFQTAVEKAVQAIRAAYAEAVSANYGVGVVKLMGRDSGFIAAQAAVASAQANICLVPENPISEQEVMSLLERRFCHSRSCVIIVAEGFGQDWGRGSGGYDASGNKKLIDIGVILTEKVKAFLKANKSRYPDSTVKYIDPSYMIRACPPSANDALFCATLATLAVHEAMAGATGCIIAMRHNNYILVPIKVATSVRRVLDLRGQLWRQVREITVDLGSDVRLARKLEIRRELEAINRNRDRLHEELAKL
# Target: ATP-dependent 6-phosphofructokinase (Trypanosoma brucei brucei) (UniProt O15648)
# Assay: qHTS Assay to Find Inhibitors of T. brucei phosphofructokinase;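 also: 0% = uninhibited 1x PFK enzyme wells and -100% = no-enzyme wells; nearly all actives have a fitted effect of over 60% in size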
# Conditions: T. brucei PFK, ADP-Glo luminescence; at 57.5 µM (top of the series)
# Text: NIH Molecular Libraries Probe Production Network [MLPCN] NIH Chemical Genomics Center [NCGC] Grant: 1 R03 MH092153-01 PI Name: Malcolm Walkinshaw, University of Edinburgh NCGC Assay Overview: Various species of the protozoan family Trypanosomatidae are responsible for a range of serious human diseases in tropical and subtropical areas of the world. […] Many of the disorders caused by trypanosomatids are fatal if left untreated, but most currently used drugs are inefficient and toxic. […] A luminescence-based assay for T. brucei PFK activity has been developed which uses luciferase to detect production of ADP. […] To directly measure the ADP product of the PFK reaction, we used the ADP-Glo detection kit (Promega), which utilizes two separate reactions to 1) deplete all remaining uncatalyzed ATP and 2) convert all remaining ADP to ATP, which is then detected through a traditional luciferase-coupled reaction. […]
# NCGC Assay Protocol Summary: NCGC Assay Protocol Summary: Substrate buffer was dispensed into white, solid 1536-well plates at 3uL/well in 0.1M triethanolamine (TEA) buffer, pH 8.0, containing final concentrations of 5 mM MgCl2, 0.01% Tween20, 0.5 mM fructose-6-phosphate (F6P) and 0.1mM ATP. […] The plates were measured on a ViewLux plate reader for luminescent signal using a clear filter with a one second exposure. The %Activity was determined from the corrected luminescence values. […]
row,Compound,"activity, negative = inhibition"
1,CCC(=O)N(c1ccccc1)C1(COC)CCN(CCn2nnn(CC)c2=O)CC1,inactive: 0%
2,CCC(=O)N(c1ccccc1)C1(COC)CCN(CCc2cccs2)CC1,inactive: -1.57%
